Reference: article PMC7206614, “Photoswitchable ORG25543 Congener Enables Optical Control of Glycine Transporter 2” (ACS Chemical Neuroscience, 2020)

Amino acid sequences for entries named in this document (tags omitted). A change or cut given only in a name is not applied to a line headed by its entry.
UniProt Q9Y345: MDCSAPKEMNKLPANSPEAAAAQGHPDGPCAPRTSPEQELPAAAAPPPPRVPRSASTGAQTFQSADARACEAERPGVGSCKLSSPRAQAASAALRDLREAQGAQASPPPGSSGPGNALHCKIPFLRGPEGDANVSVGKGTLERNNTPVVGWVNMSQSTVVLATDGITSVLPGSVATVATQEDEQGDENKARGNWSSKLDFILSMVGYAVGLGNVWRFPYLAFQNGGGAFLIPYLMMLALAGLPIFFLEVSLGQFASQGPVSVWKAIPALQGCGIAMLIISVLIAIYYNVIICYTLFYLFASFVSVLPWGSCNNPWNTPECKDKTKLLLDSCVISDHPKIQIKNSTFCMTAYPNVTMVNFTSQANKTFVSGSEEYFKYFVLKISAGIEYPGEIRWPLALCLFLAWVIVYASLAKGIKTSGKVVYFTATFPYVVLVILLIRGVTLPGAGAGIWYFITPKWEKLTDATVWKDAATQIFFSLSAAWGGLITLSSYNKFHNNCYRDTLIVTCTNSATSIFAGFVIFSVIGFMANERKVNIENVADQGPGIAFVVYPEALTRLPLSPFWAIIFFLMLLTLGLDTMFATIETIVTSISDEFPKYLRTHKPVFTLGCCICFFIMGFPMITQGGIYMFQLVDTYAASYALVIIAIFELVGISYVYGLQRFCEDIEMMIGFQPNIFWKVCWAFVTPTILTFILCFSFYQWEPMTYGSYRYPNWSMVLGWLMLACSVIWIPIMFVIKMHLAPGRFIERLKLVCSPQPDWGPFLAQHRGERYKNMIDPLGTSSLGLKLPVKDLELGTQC
UniProt P48067: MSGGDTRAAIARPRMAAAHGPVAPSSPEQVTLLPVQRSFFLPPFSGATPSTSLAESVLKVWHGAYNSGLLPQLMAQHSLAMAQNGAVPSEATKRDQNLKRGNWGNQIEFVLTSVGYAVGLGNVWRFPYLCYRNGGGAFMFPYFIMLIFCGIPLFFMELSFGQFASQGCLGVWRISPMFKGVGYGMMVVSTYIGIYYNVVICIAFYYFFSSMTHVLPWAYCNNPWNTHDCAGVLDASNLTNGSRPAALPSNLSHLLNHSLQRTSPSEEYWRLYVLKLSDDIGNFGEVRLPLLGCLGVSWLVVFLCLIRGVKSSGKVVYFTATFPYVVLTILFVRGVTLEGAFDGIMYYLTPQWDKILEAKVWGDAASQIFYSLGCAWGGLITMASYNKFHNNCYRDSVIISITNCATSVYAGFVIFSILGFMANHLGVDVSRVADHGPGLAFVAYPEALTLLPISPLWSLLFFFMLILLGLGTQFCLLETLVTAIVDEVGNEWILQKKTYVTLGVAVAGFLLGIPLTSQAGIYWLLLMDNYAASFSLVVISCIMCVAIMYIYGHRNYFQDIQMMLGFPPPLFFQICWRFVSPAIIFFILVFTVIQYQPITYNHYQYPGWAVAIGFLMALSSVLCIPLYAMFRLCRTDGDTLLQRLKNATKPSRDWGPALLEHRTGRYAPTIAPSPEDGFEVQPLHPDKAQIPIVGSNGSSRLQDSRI

Assays:
GlyT2 = GlyT2 (Homo sapiens, UniProt Q9Y345); assay: Two-electrode voltage clamp of glycine transport currents in Xenopus laevis oocytes expressing GlyT2; format: cell-based; settings: for fold less potent than the nonazologized parent analogue 2: GlyT2 IC50 compared with 2; for Imax: mean ± SEM
GlyT1 = GlyT1 (Homo sapiens, UniProt P48067); assay: Glycine transport currents in oocytes expressing GlyT1; settings: highest concentration of both isomers, 365 or 470 nm
[1] = Thermal relaxation of (Z)-3 in the dark monitored by UV/vis spectroscopy; settings: PBS pH 7.4, preirradiated with 365 nm light, left in the dark, spectra every 12 h
[2] = glycine Imax with 1 μM azo-compound 3, normalized to Imax of glycine transport in the absence of inhibitor
[3] = glycine Imax with 3 μM azo-compound 3, normalized to Imax of glycine transport in the absence of inhibitor
[4] = glycine Imax with 10 μM azo-compound 3, normalized to Imax of glycine transport in the absence of inhibitor
[5] = glycine Imax with 30 μM azo-compound 3, normalized to Imax of glycine transport in the absence of inhibitor
[6] = read-out: average IC50, average over the glycine concentrations of Table 1
[7] = read-out: azo-compound 3 IC50, 10 μM glycine, 3 irradiated at 365 nm ((Z)-3) or 470 nm ((E)-3), mean (95% confidence interval)
[8] = read-out: azo-compound 3 IC50, 30 μM glycine, 3 irradiated at 365 nm ((Z)-3) or 470 nm ((E)-3), mean (95% confidence interval)
[9] = read-out: azo-compound 3 IC50, 100 μM glycine, 3 irradiated at 365 nm ((Z)-3) or 470 nm ((E)-3), mean (95% confidence interval)
[10] = read-out: azo-compound 3 IC50, 300 μM glycine, 3 irradiated at 365 nm ((Z)-3) or 470 nm ((E)-3), mean (95% confidence interval)
[11] = read-out: azo-compound 3 IC50, 1000 μM glycine, 3 irradiated at 365 nm ((Z)-3) or 470 nm ((E)-3), mean (95% confidence interval)

Row | Structure (SMILES) | fold less potent than the nonazologized parent analogue 2 (GlyT2) [fold] | fold more potent, trans versus cis conformation (GlyT2; GlyT2 inhibition) [fold] | Imax (GlyT2; [2]) | Imax (GlyT2; [3]) | Imax (GlyT2; [4]) | Imax (GlyT2; [5]) | IC50 (GlyT2; [6]) [µM] | IC50 (GlyT2; [7]) [µM] | IC50 (GlyT2; [8]) [µM] | IC50 (GlyT2; [9]) [µM] | IC50 (GlyT2; [10]) [µM] | IC50 (GlyT2; [11]) [µM] | reversibility of inhibition after washing (GlyT2; 10 μM 3, 300 μM glycine, glycine reapplied after 5 min wash, both isomers) | mechanism of glycine transport inhibition (GlyT2; glycine concentration response curves with increasing 3, Eadie-Hofstee plots, 365 and 470 nm) | activity at GlyT1 (GlyT1) | time to complete thermal relaxation of (Z)-3 to (E)-3 [1] [h]
1 | COc1cc(C(=O)NCC2(N(C)C)CCCCC2)ccc1/N=N/c1ccccc1 | > 110 | 2 | 0.872 ± 0.029 | 0.732 ± 0.033 | 0.495 ± 0.036 | 0.332 ± 0.043 | 5.36 | 4.84 | 5.77 | 4.49 | 7.12 | 4.6 |  |  |  | 
2 | COc1cc(C(=O)NCC2(N(C)C)CCCCC2)ccc1N=Nc1ccccc1 |  |  |  |  |  |  |  |  |  |  |  |  | fully reversed after 5 min | noncompetitive inhibitor | no activity | 
3 | COc1cc(C(=O)NCC2(N(C)C)CCCCC2)ccc1/N=N\c1ccccc1 | > 110 |  | 0.916 ± 0.022 | 0.835 ± 0.033 | 0.642 ± 0.031 | 0.527 ± 0.063 | 9.94 | 11.1 | 12.3 | 10.6 | 9.25 | 6.44 |  |  |  | 84

Where two headings read alike, the source gives them in different places.
